Reference: patent US20250144187A1, “COMBINATION OF HYDROLASES AND ANTI-MICROORGANISM DRUGS AND USES THEREOF” (CENTRE FOR EYE AND VISION RESEARCH LIMITED, priority 2023, published 2025)

Test system: ARPE-19, NIH/3T3 and 293T cells
Test: Toxicities analysis on lysozyme and oxazolidinone-class antibiotics
Details: exposure 12 hours and 24 hours

Question: Which “sensitivity of cell lines (toxicity)” value does the source give for Cn1nnc(-c2ccc(-c3ccc(N4C[C@H](COP(=O)(O)O)OC4=O)cc3F)cn2)n1 [tedizolid phosphate, Tedizolid Phosphate] here?
Answer: Its value is “insensitive”.
